Results taken from ChEMBL document CHEMBL5291721, “A preclinical secondary pharmacology resource illuminates target-adverse drug reaction associations of marketed drugs” (Nat Commun, 2023).
Each block holds one compound with its values, some of them ahead of it.

Chains of the proteins cited; added tags and fusions are not shown.
UniProt P35367, whole entry: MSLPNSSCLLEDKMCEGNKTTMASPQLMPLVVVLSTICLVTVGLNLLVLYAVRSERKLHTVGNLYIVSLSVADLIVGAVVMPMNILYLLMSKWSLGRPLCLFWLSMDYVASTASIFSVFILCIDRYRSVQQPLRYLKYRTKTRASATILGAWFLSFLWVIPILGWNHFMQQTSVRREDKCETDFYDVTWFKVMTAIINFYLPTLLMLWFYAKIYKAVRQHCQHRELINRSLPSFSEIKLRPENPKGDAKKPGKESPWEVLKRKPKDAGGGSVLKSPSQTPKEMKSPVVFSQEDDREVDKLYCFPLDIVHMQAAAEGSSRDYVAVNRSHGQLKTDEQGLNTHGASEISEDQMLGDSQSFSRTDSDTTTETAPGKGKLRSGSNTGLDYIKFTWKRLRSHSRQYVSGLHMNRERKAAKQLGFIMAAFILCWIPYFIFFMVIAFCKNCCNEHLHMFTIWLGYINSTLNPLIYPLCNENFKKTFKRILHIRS
UniProt P08172, whole entry: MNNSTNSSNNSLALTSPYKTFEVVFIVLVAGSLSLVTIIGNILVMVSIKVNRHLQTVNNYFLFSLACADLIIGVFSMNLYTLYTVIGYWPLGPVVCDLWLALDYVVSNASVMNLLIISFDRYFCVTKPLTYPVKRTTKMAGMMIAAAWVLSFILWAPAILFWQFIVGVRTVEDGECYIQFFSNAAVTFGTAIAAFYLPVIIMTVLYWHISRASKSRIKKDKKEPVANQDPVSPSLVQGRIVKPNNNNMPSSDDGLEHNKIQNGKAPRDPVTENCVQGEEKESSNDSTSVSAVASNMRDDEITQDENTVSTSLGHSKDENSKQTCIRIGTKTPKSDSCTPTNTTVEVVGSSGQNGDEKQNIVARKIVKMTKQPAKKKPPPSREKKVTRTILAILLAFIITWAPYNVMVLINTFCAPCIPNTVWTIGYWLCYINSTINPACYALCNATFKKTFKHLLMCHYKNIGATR
UniProt Q01827, whole entry: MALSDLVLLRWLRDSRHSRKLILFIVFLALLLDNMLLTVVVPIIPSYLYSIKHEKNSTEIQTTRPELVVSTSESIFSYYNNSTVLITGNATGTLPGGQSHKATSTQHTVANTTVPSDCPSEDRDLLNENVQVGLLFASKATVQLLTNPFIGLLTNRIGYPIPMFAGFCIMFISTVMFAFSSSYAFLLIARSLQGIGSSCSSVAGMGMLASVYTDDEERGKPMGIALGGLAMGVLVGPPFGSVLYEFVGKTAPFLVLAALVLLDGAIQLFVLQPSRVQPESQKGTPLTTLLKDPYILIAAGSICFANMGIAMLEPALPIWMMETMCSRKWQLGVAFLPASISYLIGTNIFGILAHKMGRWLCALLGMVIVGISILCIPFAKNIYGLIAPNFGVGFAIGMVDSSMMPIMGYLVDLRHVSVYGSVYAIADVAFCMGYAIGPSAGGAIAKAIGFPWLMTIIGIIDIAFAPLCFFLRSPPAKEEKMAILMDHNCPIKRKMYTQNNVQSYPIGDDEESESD

Legend:
Histamine H1 receptor = Histamine H1 receptor (Homo sapiens, UniProt P35367)
[1] = target: T1, Muscarinic acetylcholine receptor M2 (Homo sapiens, UniProt P08172); format: functional, cell-based
[2] = target: T1, Muscarinic acetylcholine receptor M2
[3] = target: Synaptic vesicular amine transporter (Rattus norvegicus, UniProt Q01827); format: functional
Also: assay procedure not described here.

AC50 (Histamine H1 receptor): 170 nM
Structure (SMILES): Cc1ccc(/C(=C\CN2CCCC2)c2cccc(/C=C/C(=O)O)n2)cc1 [ACRIVASTINE]

Structure (SMILES): CN1[C@@H]2C[C@@H](OC(=O)[C@H](CO)c3ccccc3)C[C@H]1[C@@H]1O[C@@H]12 [SCOPOLAMINE]
AC50 [1]: > 30000 nM | AC50 [2]: 0.7 nM

AC50 [3]: 7 nM
Structure (SMILES): COc1cc2c(cc1OC)C1CC(=O)C(CC(C)C)CN1CC2 (centres undefined) [TETRABENAZINE]
